Amino acid sequences for entries named in this document (tags omitted).
UniProt Q9ERZ3, whole entry: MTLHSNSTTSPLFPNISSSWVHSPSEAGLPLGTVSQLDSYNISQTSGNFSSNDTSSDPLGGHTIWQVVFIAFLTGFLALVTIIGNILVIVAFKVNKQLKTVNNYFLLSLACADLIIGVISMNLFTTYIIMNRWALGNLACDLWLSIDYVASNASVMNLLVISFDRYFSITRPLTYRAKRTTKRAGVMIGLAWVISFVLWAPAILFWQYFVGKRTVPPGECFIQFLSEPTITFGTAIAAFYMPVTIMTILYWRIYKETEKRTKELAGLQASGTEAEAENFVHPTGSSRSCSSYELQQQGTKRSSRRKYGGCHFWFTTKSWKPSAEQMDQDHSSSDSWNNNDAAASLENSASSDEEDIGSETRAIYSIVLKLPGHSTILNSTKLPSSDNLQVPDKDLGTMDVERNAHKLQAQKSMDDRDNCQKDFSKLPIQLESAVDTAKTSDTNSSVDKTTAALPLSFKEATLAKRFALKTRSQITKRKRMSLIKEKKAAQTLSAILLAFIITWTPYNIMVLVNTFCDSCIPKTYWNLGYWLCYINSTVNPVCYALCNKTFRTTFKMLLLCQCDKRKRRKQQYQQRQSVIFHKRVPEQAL

In patent publication US10883143B2, “Compositions and methods for enhancing odorant receptor activity” (DUKE UNIVERSITY, priority 2009, dated 2021):

What was measured:
[1] = target: T1, OR-S6 coexpressed with M3 (Mus musculus, UniProt Q9ERZ3); assay: CRE-luciferase reporter assay of OR activation in HEK293T cells; assay type: cell-based
T1 construct: The open reading frames were amplified using Phusion polymerase; expressed in transfected cells; host or cells: HEK293T
Procedure: Given that GPCRs that form heteromeric interactions often show functional co-modulation, experiments were conducted to determine if altering M3 activity directly affects the odor-mediated activation of ORs. […] HEK293T cells Hana3A cells were maintained in minimal essential medium (MEM) containing 10% fetal bovine serum (M10) and penicillin-streptomycin and amphotericin solution. Lipofectamine 2000 (Invitrogen) was used for transfection following manufacturer's protocols. […] Briefly, cAMP response element (CRE)-luciferase (Stratagene) was used to measure OR activation. […] Cells were plated on poly-D-lysine-coated 96-well plates (NUNC) 2 days prior to assay. Cells were transfected with ORs in either Hana3A or HEK293T cell lines along with various combinations of RTP1S, Ric-8b, M3, CRE-luciferase, and pRL-SV40. 18-24 hours after transfection, cells were rinsed with 50 μl of CD293 (Invitrogen) and stimulated with 25 μl of odorant solution dissolved in CD293. Cells were incubated for 4 hours at 37° C. and 5% CO2 before luciferase assays. Protocols for measuring luciferase and Renilla luciferase activities were as described by the manufacturer (Promega). Normalized luciferase activity was calculated with the formula (LN−Lmin)/(Lmax−Lmin), where LN is the luminescence of firefly luciferase in response to the odorant, Lmin is the minimum luciferase value on a plate or set of plates, and Lmax is the maximum luciferase value on a plate or set of plates. The data was analyzed with Microsoft Excel and GraphPad Prism 5. Odorants and muscarinic agonists and antagonists were from Sigma except for darifenacin, which was purchased from Santa Cruz.

[2] = target: T2, M3 (Mus musculus, UniProt Q9ERZ3); assay: Calcium imaging with HEK293T cells expressing M3; assay type: cell-based; settings: carbachol 10^−7M
T2 construct: The open reading frames were amplified using Phusion polymerase; expressed in transfected cells; host or cells: HEK293T
Text: Since M3 potentiates OR signaling, the possibility that OR activation may also enhance M3 signaling was considered.

C[N+](C)(C)CCOC(N)=O [carbachol]
reporter gene expression, compound alone ([1]; 10^−7M, no odor, HEK293T cells): did not induce the reporter gene expression | OR-S6 activation by nonanedioic acid on co-stimulation with muscarinic ligand ([1]; HEK293T coexpressing M3 and OR-S6, carbachol 10^−7M, atropine 10^−6M): further enhanced OR-S6 activation | CRE-luciferase reporter response (cAMP levels) without odor, low carbachol concentration ([1]; concentrations lower than 10^−6M, cells expressing M3, OR and RTP1S): not significantly alter cAMP levels | CRE-luciferase reporter response without odor, high carbachol concentration ([1]; more than 1 uM carbachol, only when OR, RTP1S and M3 coexpressed): dramatic synergistic effects; also recorded: induced higher responses | calcium response [2]: robust calcium response; also recorded: calcium influx

“Also recorded” adds a separate entry of the source.
